Assay results from paper PMC10799709, “Characterization of a New Immunosuppressive and Antimicrobial Peptide, DRS-DA2, Isolated from the Mexican Frog, Pachymedusa dacnicolor” (International Journal of Inflammation, 2024).

Assays:
S. aureus ATCC 6538 = assay: Antimicrobial assay MIC/MBC; assay type: cell-based; conditions: MH broth, 37°C, 20 hours
Protocol: (§1) The minimum inhibitory concentration (MIC) was determined by a liquid test in 96-well microplates as previously described. 100 µL of the sample to be tested was distributed in triplicate to obtain a range of final concentrations from 100 to 0.2 µM in the wells. 90 µL of bacterial suspension (5 × 10^5 CFU/mL for Gram-negative bacteria and 5 × 10^5 CFU/mL for Gram-positive strains in Mueller–Hinton broth) were added to each well [14]. The microtiter plates were incubated at 37°C overnight. The optical density of the wells was measured at […], and the results were interpreted by calculating the percentage of growth in each well according to the formula: % growth = (OD600 well − OD600 T0)/(OD600 of T100 − OD600 T0) ∗ 100, where OD600 T100 = DO600 growth control (bacterial suspension without the test sample, 100% growth), OD600 T0 = OD600 of sterility control (culture medium + […] 10 µL formaldehyde, 0% growth) well, and OD600 = OD600 of the well which was desired to calculate the percentage of growth (+ bacterial suspension test sample). MIC is the minimum concentration of the peptide that inhibits bacterial growth after incubation at 37°C for 20 hours.
(§2) The minimum bactericidal concentration (MBC) is defined as the minimum concentration of the peptide killing 99.9% of bacteria after incubation at 37°C for 20 hours. […]

P. aeruginosa ATCC 27853 = assay: Antimicrobial assay MIC/MBC; assay type: cell-based; conditions: MH broth, 37°C, 20 hours
Protocol: as §1, §2

**Q.** Which results are given for `CC[C@H](C)[C@H](NC(=O)CN)C(=O)NCC(=O)N[C@@H](C)C(=O)N[C@H](C(=O)N[C@@H](CC(C)C)C(=O)N[C@@H](CCCCN)C(=O)N[C@H](C(=O)N[C@@H](CC(C)C)C(=O)N[C@H](C(=O)N[C@H](C(=O)NCC(=O)N[C@@H](CC(C)C)C(=O)N1CCC[C@H]1C(=O)N[C@@H](C)C(=O)N[C@@H](CC(C)C)C(=O)N[C@H](C(=O)N[C@@H](CO)C(=O)N[C@@H](Cc1c[nH]c2ccccc12)C(=O)N[C@H](C(=O)N[C@@H](CCCCN)C(=O)N[C@@H](CCCNC(=N)N)C(=O)N[C@@H](CCCCN)C(=O)N[C@@H](CCCNC(=N)N)C(=O)N[C@@H](CCC(N)=O)C(=O)N[C@@H](CCC(N)=O)C(N)=O)[C@@H](C)CC)[C@@H](C)CC)[C@@H](C)O)[C@@H](C)O)C(C)C)C(C)C` [Melittin, melittin]?
**A.** MIC (S. aureus ATCC 6538): 0.0063 nM (≈ 0.0179 ng/mL); MIC (P. aeruginosa ATCC 27853): 0.05 nM (≈ 0.142 ng/mL)

Converted amounts (≈) assume the structure as drawn.
